The source of these data is PubChem BioAssay AID684 (PCMD, 2007).

Protein sequences, listed by entry. Tags and fused reporters are not part of them. Lines headed by an entry give the natural chain unless they say otherwise; changes in a name come on top.
UniProt P00748: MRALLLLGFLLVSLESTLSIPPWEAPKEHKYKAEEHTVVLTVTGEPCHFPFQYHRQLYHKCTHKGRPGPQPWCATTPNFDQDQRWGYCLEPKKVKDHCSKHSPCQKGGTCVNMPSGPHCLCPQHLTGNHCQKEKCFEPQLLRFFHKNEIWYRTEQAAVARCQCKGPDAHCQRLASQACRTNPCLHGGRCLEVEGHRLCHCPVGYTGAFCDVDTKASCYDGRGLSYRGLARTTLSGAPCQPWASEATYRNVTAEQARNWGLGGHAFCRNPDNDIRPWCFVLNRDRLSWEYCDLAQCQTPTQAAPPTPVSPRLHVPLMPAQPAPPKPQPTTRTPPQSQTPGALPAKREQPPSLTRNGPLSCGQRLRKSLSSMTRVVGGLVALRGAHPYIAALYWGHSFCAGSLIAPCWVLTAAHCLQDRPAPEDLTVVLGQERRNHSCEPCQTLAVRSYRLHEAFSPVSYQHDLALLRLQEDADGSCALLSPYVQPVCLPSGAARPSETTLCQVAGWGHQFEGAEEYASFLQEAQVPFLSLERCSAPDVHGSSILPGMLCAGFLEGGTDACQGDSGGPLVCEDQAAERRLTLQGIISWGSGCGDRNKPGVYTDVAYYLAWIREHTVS

The structures appear in SMILES notation. The entries are a selection whose mix differs from that of the whole data set. The source made the active and inactive calls. Cut-off read from the data, not from the text of the source: active = inhibition above about 20% (passing the limit was not always enough); inactive = the rest.

For orientation: inhibition means the drop in the measured response relative to a control, in per cent.

The target in the experiment is Coagulation factor XII (Homo sapiens) (UniProt P00748). Kind of experiment: blockers of FXIIa protease activity – biochemical, pooled compound mixtures, fluorogenic substrate, primary screen (AID 684).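 Note: 0% = enzyme without compound and 100% = no enzyme blank.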 As to conditions: purified FXIIa, at 5 µM, hits give high values.
Turning to `CCc1nc2c(n1)c1c(non1O)c1c2no[n+]1[O-]`, the inhibition is inactive: 8.26%.
As for `Cc1c2non([O-])c-2c(C)[n+](=O)[n+]1[O-]`, the inhibition is inactive: -0.35%.
Under `COC(=O)c1cc2c(s1)N=C(c1ccccc1)N(C)P2(=O)N1CCOCC1` (stereo not given) stands inactive: 1.75%; under `O=P1(Nc2nc3ccc(Cl)cc3s2)COc2ccccc2O1` (stereo not given), inactive: 9.23%.
Under `c1nnnn1CCn1cnnn1` stands inactive: -1.23%.
Under `O=P(Nc1nccs1)(c1ccccc1)c1ccccc1` stands inactive: 19.7%.
In the case of `O=C(OC1CN2CCC1CC2)c1cccc(Cl)c1` (stereo not given), the inhibition is inactive: 12.6%.
Under `Cc1nn(-c2ccccc2)c2c1P(=O)(N1CCOCC1)N(C)C(c1ccccc1)=N2` (stereo not given) stands inactive: 4.2%; under `O=P1(Nc2ccc(Br)cn2)COc2ccccc2OC1`, inactive: 2%.
Under `Cc1ccc(OCC(=O)OC2CN3CCC2CC3)cc1` (stereo not given) stands inactive: 4.44%; under `O=P1(Nc2ncccn2)COc2ccccc2OC1`, inactive: 6.57%; under `Clc1n[nH]nc1-c1nn[nH][15n]1`, inactive: 1.26%.
Under `O=P1(Nc2ccccn2)COc2ccccc2OC1` stands inactive: 11.2%; under `Cc1cccc(OCC(=O)OC2CN3CCC2CC3)c1` (stereo not given), inactive: 0.68%; under `CCOP1(=S)c2c(C)nn(CCC#N)c2N=C(c2ccccc2F)N1C` (stereo not given), inactive: -0.505%.
For the molecule `O=P(Nc1nccs1)(c1ccccc1)c1nc2ccccc2s1` (stereo not given), the inhibition is inactive: 3.51%.
Regarding `CCOP1(=S)c2c(C)nn(CCC#N)c2N=C(c2ccc(F)cc2)N1C` (stereo not given), the inhibition is inactive: 2.38%.
In the case of `O=C(OC1CN2CCC1CC2)C12CC3CC(CC(C3)C1)C2` (stereo not given), the inhibition was inactive: 8.94%.
With `O=C(COc1ccccc1)OC1CN2CCC1CC2` (stereo not given), the inhibition is inactive: 0.435%.
As to `COP1(=S)c2c(C)nn(CCC#N)c2N=C(c2ccc(F)cc2)N1C` (stereo not given), the inhibition is inactive: 0.42%.
